Patent US7160890B2, “Compounds specific to adenosine A3 receptor and uses thereof” (OSI Pharmaceuticals, Inc., priority 1999, dated 2007)

The chains behind the UniProt entries cited, without tags or fusion partners.
UniProt P30542, whole entry: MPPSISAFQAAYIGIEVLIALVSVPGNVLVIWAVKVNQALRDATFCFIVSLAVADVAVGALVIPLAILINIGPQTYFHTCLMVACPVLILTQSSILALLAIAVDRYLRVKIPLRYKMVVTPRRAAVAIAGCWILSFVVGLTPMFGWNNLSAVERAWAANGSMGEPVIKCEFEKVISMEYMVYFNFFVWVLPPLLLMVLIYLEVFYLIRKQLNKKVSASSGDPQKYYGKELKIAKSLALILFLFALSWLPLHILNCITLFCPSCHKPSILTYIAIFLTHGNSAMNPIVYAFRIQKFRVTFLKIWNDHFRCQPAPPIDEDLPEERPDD

Target: human A1 adenosine receptor (Homo sapiens, UniProt P30542)
Assay: fus1-LacZ β-galactosidase assay in yeast expressing human A1 adenosine receptor
Type: cell-based
Set-up: yeast alpha-factor (Mfα1) prepro leader (N, cleaved yes); expressed in transfected cells; host or cells: Saccharomyces cerevisiae (strain CY12660 or related strains carrying plasmid p5095)
Settings: NECA concentration of 10^−8 M

CCNC(=O)[C@H]1O[C@@H](n2cnc3c(N)ncnc32)[C@H](O)[C@@H]1O [NECA, 5′-N-ethylcarboxamidoadenosine]
stimulation of β-galactosidase activity: approximately 2 fold
